Measurements: US7629351B2, “N-((1R,2S,5R)-5-(tert-butylamino)-2-((S)-2-oxo-3-(6-(trifluoromethyl)quinazolin-4-ylamino) pyrrolidin-1-yl)cyclohexyl)acetamide and other modulators of chemokine receptor activity, crystalline forms and process” (Bristol-Myers Squibb Company, priority 2006, dated 2009)

Sequences of proteins named here, by UniProt entry; tags and fusion partners are left off. A change or cut given only in a name is not applied to a line headed by its entry.
UniProt P41597: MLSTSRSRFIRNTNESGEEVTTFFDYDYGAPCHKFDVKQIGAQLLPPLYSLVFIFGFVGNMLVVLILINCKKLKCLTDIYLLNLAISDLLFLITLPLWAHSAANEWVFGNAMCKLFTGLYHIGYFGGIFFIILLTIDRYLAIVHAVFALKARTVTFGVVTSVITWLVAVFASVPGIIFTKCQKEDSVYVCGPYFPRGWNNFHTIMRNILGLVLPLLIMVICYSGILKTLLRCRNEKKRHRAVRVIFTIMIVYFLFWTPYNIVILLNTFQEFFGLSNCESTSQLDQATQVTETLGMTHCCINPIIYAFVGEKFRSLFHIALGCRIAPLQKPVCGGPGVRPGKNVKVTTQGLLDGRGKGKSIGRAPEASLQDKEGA

Tests used:
[1] = Intradermal MCP-1 challenge model in cynomolgus monkey; type: in vivo; conditions: both sexes, cynomolgus monkey, plasma, 18 hours post dosing, read-out: Free plasma concentration
Experimental: (§1) Intradermal injection of MCP-1 results in the infiltration of mononuclear cells to the injection site. This model was initially developed to assess the inhibitory effect of CCR2 antagonists on the infiltration of mononuclear cells to the skin tissue injected with human MCP-1. The cellular infiltrate can be measured semi-quantitatively by histological scoring.
(§2) Immediately after dosing on Day 3, all animals received 2 intradermal injections of 10 μg (50 μL/injection ) of human MCP-1 (R & D Systems) and 2 intradermal injections of its DPBS control (50 μl/injection) at separate sites on the dorsal thorax. Dermal biopsies of all sites were obtained at approximately 18 hours following MCP-1 (or DPBS) challenge. Biopsies were processed for semi-quantitative histological evaluation. Representative sections of skin samples were examined by light microscopy; microscopic lesions and cellular infiltration were noted and their incidences were tabulated.
(§3) In addition to biopsy analysis, blood was collected and evaluated for complete blood counts and cell differentials. Also evaluated were plasma samples for compound (and metabolite) concentrations, and serum samples for systemic MCP-1 levels.

[2] = system: mononuclear cell recruitment to the skin; assay: as above; type: in vivo
Experimental: as §1, §2, §3

[3] = system: monocyte/macrophage infiltration; assay: 48-hour TG peritonitis model in hCCR2 KI mouse; conditions: for inhibition of monocyte/macrophage infiltration: 48 h post TG; for % inhibition of monocyte/macrophage infiltration: 48 hour
CCR2 = CCR2 (Homo sapiens, UniProt P41597); assay: In vivo receptor occupancy in blood of hCCR2 KI mice, 48-hour TG peritonitis model (Gaddum equation)
[4] = 5 mg/kg oral once daily for three days
[5] = 10 mg/kg oral once daily for three days
[6] = 20 mg/kg oral once daily for three days

CC(=O)N[C@@H]1C[C@H](NC(C)(C)C)CC[C@@H]1N1CC[C@H](Nc2ncnc3ccc(C(F)(F)F)cc23)C1=O [Example 1, N-((1R,2S,5R)-5-(tert-butylamino)-2-((S)-2-oxo-3-(6-(trifluoromethyl)quinazolin-4-ylamino)pyrrolidin-1-yl)cyclohexyl)acetamide]
concentration at 18 h [1, 4]: 99 nM | concentration at 18 h [1, 5]: 248 nM | concentration at 18 h [1, 6]: 512 nM | inhibition of dermal mononuclear cell infiltration [2, 4]: 75% | inhibition of dermal mononuclear cell infiltration [2, 5]: 95% | inhibition of dermal mononuclear cell infiltration [2, 6]: 95% | infiltration of other cell types such as eosinophils and neutrophils ([2]; MCP-1 challenge): blocked | inhibition of monocyte/macrophage infiltration ([3]; 1 mg/kg BID oral): 24% | % inhibition of monocyte/macrophage infiltration ([3]; 1 mg/kg BID oral): 24% | inhibition of monocyte/macrophage infiltration ([3]; 25 mg/kg BID oral): 74% | % inhibition of monocyte/macrophage infiltration ([3]; 25 mg/kg BID oral): 74% | inhibition of monocyte/macrophage infiltration ([3]; 100 mg/kg BID oral): 78% | % inhibition of monocyte/macrophage infiltration ([3]; 100 mg/kg BID oral): 78% | Concentration of Mouse MCP-1 in plasma (CCR2; 1 mg/kg BID oral): 0.005 nM | Concentration of free Example 1 in plasma (CCR2; 1 mg/kg BID oral): 1.4 nM | Concentration of Mouse MCP-1 in plasma (CCR2; 25 mg/kg BID oral): 0.017 nM | Concentration of free Example 1 in plasma (CCR2; 25 mg/kg BID oral): 14 nM | Concentration of Mouse MCP-1 in plasma (CCR2; 100 mg/kg BID oral): 0.015 nM | Concentration of free Example 1 in plasma (CCR2; 100 mg/kg BID oral): 53 nM

Like-named read-outs stand apart in the source and are kept apart here.
